Laboratory results reported in patent US20250312336A1, “Compositions And Methods For Treating Cancer With Calcium Channel Inhibitors” (Institute for Cancer Research d/b/a The Research Institute …, priority 2024, published 2025).

Tested on: intratumoral and splenic immune cells
Test: Immunoprofiling of tumor and splenic tissues of KPC3 tumor-bearing mice
Type: in vivo, mouse
Conditions: tumor-bearing mice treated 3 weeks; for Frequencies of immune cells in the spleen: clofazimine 50 mg/kg
Protocol: Orthotopically implanted syngeneic KPC3 tumor tissues were harvested and digested with 1 mg/mL Collagenase D (Roche, Switzerland) plus with 100 μg/mL DNase I (Roche) in RPMI medium for 45 min with continuous agitation at 37° C. The digestion mixture was passed through a 100 μm cell strainer to prepare single cell suspension and washed with PBS supplemented with 2 mM EDTA and 1% FBS. Single cells were stained with antibodies purchased from BioLegend (San Diego, CA) diluted at 1:200 for staining: CD45-BV785 (cat #103149), CD3-APC (cat #100236), CD8-APC/Cy7 (cat #100714), TIM3-BV421 (cat #134019), CD69-FITC (cat #104506), PD-1-BV605 (#135220), CD11C-PE/Cy7 (cat #117318), MHCII-APC (cat #107615), CD11b-Percp/Cy5.5 (cat #101228), F4/80-BV421 (#123132), Ly6C-BV605 (cat #128036), Ly6G-APC/Cy7 (cat #127624), NK1.1-FITC (cat #156508), CD3-APC/Cy7 (cat #100222), CD8-PE/Cy7 (cat #100722), IFN-γ-APC (cat #505810), Granzyme B-Percp/Cy5.5 (cat #372212), CD3-BV421 (cat #100228), CD4-PE/Cy7 (cat #116016), CD25-APC/Cy7 (cat #, 101908), Foxp3-AF647 in permeabilized cells (cat #,320014). Cholesterol abundance in cell membranes was determined with Cholesterol Detection Assay Kit (Cayman, cat #10009779). Dissociated cells were fixed with fixative solution for 10 minutes, washed and labeled with Filipin III as per the manufacturer's instructions. Labeling with Filipin III was done by incubating in the dark for 30 minutes. After two washes for 5 minutes each, labeling was analyzed by flow cytometry (excitation: 340-380, emission: 385-470). The IFN-γ, Granzyme B and Foxp3 were detected using Foxp3/Transcription Factor Staining Buffer (00-5523-00, Thermo Fisher Scientific). Cells were stained for cell surface markers at 4° C. for 30 min followed by fixation and permeabilization buffer for 30 mins and two washes with permeabilization buffer and incubation with the indicated antibodies for 30 mins, washed with PBS twice followed by flow cytometry analysis.

**Q.** What does the source list for `CC(C)/N=c1\cc2n(-c3ccc(Cl)cc3)c3ccccc3nc-2cc1Nc1ccc(Cl)cc1` [clofazimine]?
**A.** Cholesterol levels (Filipin III) in intratumoral CTLs: decreased cholesterol levels; Cholesterol levels (Filipin III) in splenic CD8+ T cells: failed to do so; Exhaustion markers PD-1 and TIM3 in intratumoral CTLs: decreased expression; Intratumoral CD8+ T cells: increased numbers; Intratumoral CD11b+F4/80+ macrophages, LY6G+ granulocytic or LY6C+ monocytic MDSCs, NK cells: did not change the numbers; Intratumoral regulatory T cells (Tregs): significantly fewer regulatory T cells; Intratumoral type I conventional dendritic cells: increased numbers; T cell activation markers CD69, IFN-γ, Granzyme B in intratumoral CTLs: increased levels of expression; Frequencies of immune cells in the spleen: No clofazimine-induced changes; Frequencies of immune cells in the spleen (listed as Clofazimine): has no effect on preponderance of immune subsets; Intratumoral CD11b+F4/80+ macrophages, LY6G+ granulocytic or LY6C+ monocytic MDSCs, NK cells (listed as Clofazimine): does not change the percentage; Markers of T cell effector function or exhaustion (CD69, PD-1, TIM3, interferon-γ) in splenic CD8+ CTLs (listed as Clofazimine): has no effect on expression
